Measured values published in patent publication US20160130245A1, “6,8-SUBSTITUTED NARINGENIN DERIVATIVE AND USE THEREOF” (SUN YAT-SEN UNIVERSITY, priority 2012, published 2016).

System: mice with cough induced from aqueous ammonia
Assay: Cough relieving effect of singly administered compounds in mice with cough induced from aqueous ammonia
Design: species or system male KM mice
Conditions: mouse, in vivo
From the text: II. Test on Cough Relieving Effect of Singly Administered Example Compounds of the Present Invention in Mice with Cough Induced from Aqueous Ammonia
1. Test animals: male KM mice (available from Guangdong Medical Laboratory Animal Center, Certificate No.: SCXK (Guangdong) 2008-0002, No. 0113738).
2. Test groups and treatment with drugs: Blank control group: treatment with 50% (v/v) PEG400 in physiological saline.
Treatment group with codeine phosphate as positive control—Codeine phosphate (Lott 20091212) is manufactured by Qinghai Pharmaceutical Co., Ltd. Before test, powdered codeine phosphate was added to 50% (v/v) PEG400 in physiological saline, to formulate a 0.47 μmol/ml solution.
Example compounds: the powdered example compounds were formulated into 50% (v/v) PEG400 in physiological saline respectively, to give a 7.44 μmol/ml solution or suspension.
Eligible male KM mice were randomly designated to a blank control group, and treatment groups with codeine phosphate as positive control and with example compounds, according to […].
The animals in each group were administered by intragastric gavage or intraperitoneal injection at a dosage of 0.2 ml/10 g of body weight, and placed in a cough inducing chamber 1 hr after administration. 1 ml of 25% concentrated aqueous ammonia was added to an atomizing cup and atomized for 15 s (at a rate of 0.15 ml/min). The coughs in 3 min were counted (during the typical cough, the mouth was opened and the head was lowered, which were accompanied by quivering of the neck and frequently a forward rushing).
Statistical analysis of data—Statistical analysis of all the data was conducted by SPSS 17.0 after the outliers were excluded by t test. Analysis of variance was performed by one-way ANOVA, multiple comparisons between the blank control group and each treatment group were carried out by Dunnett test, and the pairwise multiple comparisons between each treatment group and the codeine phosphate group were conducted by Duncan test. […]

`CCCc1c(O)cc(O)c2c1OC(c1ccc(O)cc1)CC2=O` (stereo not drawn) [Example 1, 8-n-propyl-2,3-dihydro-5,7-dihydroxy-2-(4-hydroxyphenyl)chromen-4-one] was tested, and the Cough relieving rate was 65.11%, the “cough relieving effect / therapeutic efficacy compared with reference substances (in words)” value was “higher than naringenin” and the Coughs (ip) was 6.2 ± 3.5.
